# Measurements taken from patent publication US20060252045A1, “Methods and materials for identifying agents which modulate bone remodeling and agents identified thereby” (priority 2003, published 2006).
# How the values were obtained:
# [1] = tested on: Dkk1 suppressed Wnt1/Wnt 3A TCF-signal in U2OS cells; test: Release of Dkk1 mediated inhibition of TCF-signal in U2OS cells; format: cell-based, human
# Procedure: The final readout is activation of Dkk1 mediated suppressed TCF-signal. […] The experiment represented in FIG. 2 involved U2OS (ATCC) bone cells and is based on the endogenous expression of LRP5/6 receptors. […] 10 μL of the 15× stock was added per well along with appropriately diluted vehicle (i.e., DMSO) control.
# β-catenin = test: Mouse calvarial model: β-catenin immunohistochemistry; details: in vivo
# [2] = tested on: load- and Wnt-response genes in tibiae; details: mouse, in vivo
smiles,measurement,setting,value
"O=C1NC(=O)C(c2ccccc2[N+](=O)[O-])=C1Nc1ccc(O)c(Cl)c1 [iGSK-3, 3-(3-chloro-4-hydroxyphenylamino)-4-(2-nitrophenyl)-1H-pyrrole-2,5-dione]","release of Dkk1 suppression of TCF-signal, Wnt1",[1],released almost completely
same,β-catenin expression in osteoblastic cells lining the periosteum,β-catenin,strong β-catenin expression
same,"expression of Cox2, eNos, Wnt10B, SFRP1, Cx43, CCND1 and Fzd2 in the presence of load compared to vehicle treatment",[2],synergistically induced
same,"transcriptional changes in tibiae, low dose versus high dose",[2],dose-dependent trend
